Data as given in PubChem BioAssay AID1947 (The Scripps Research Institute Molecular Screening Center, 2009).
The list shows a part of the results, in another mix than the full data. Activity calls are given as the source filed them.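 The calls were made as follows: active = inhibition above the screen mean inhibition plus 3 SD, computed separately per campaign (cut at about 18% in these data); inactive = the rest.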

Each compound was assayed on Fam108B (ABHD17B) serine hydrolase [Mus musculus] (assay: inhibition of Fam108B (ABHD17B) hydrolase – biochemical, fluorescence polarization, counter-screen for RBBP9 inhibitor project, primary screen (AID 1947;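 also: inhibitors lower polarization as less probe binds the enzyme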)). Conditions: recombinant Fam108B, FP-Rh probe fluorescence polarization; at 9.51 µM; hits give high values.

Question: How did the inhibition turn out when N#CCCN(C(=O)COC(=O)C(O)(c1ccccc1)c1ccccc1)c1ccc(F)cc1 was run?
Answer: inactive: -0.63%

Question: Which inhibition does the source give for CN(C(=O)Cc1ccccc1)[C@@H]1CC[C@]2(CCCO2)C[C@H]1N1CCCC1 here?
Answer: inactive: 4.63%

Question: With CCOP1(=S)c2c(C)nn(CCC#N)c2N=C(c2ccc(F)cc2)N1C (stereo not given) as the compound, how does the inhibition read?
Answer: inactive: 2%

Question: With O=[N+]([O-])c1ccc2c(c1)nnn2O as the compound, how does the inhibition read?
Answer: inactive: 5.87%

Question: For CN(C)C(=O)c1cc([N+](=O)[O-])cc2c1-c1c(cc([N+](=O)[O-])cc1[N+](=O)[O-])C2=O, which inhibition is on record?
Answer: active: 40.3%

Question: With CN(C(=O)Cc1ccc(Cl)c(Cl)c1)[C@H]1CC[C@@]2(CCCO2)C[C@@H]1N1CCCC1 as the compound, how does the inhibition read?
Answer: inactive: 0.72%

Question: With NC(=O)Nc1ccc([As](=O)(O)O)cc1 as the compound, how does the inhibition read?
Answer: inactive: -1.57%

Question: Nc1ccccc1[As](=O)(O)c1ccccc1 was tested. Which inhibition did it give?
Answer: inactive: -0.7%

Question: O=C(O)COc1ccc([As](=O)(O)O)cc1[N+](=O)[O-] was tested. Which inhibition did it give?
Answer: inactive: -0.13%

Question: With CCOP1(=S)c2c(C)nn(CCC#N)c2N=C(c2ccccc2F)N1C (stereo not given) as the compound, how does the inhibition read?
Answer: inactive: -2.71%

Question: With O=P(Nc1nccs1)(Oc1ccccc1)Oc1ccccc1 as the compound, how does the inhibition read?
Answer: inactive: 1.2%

Question: With O=P(Nc1nccs1)(c1ccccc1)c1nc2ccccc2s1 (stereo not given) as the compound, how does the inhibition read?
Answer: inactive: -3.19%

Question: With CS(=O)(=O)c1cc([N+](=O)[O-])c2no[n+]([O-])c2c1 as the compound, how does the inhibition read?
Answer: inactive: 2.08%

Question: For COc1cc(C2NCCC3(OCCO3)C2(C)C)cc(OC)c1OC (stereo not given), which inhibition is on record?
Answer: inactive: -2.36%

Question: How did the inhibition turn out when CCOP(=O)(Nc1cccc2ccccc12)OCC was run?
Answer: inactive: 0.57%

Question: With Cc1ccc(NCCc2c([N+](=O)[O-])cc([N+](=O)[O-])cc2[N+](=O)[O-])cc1 as the compound, how does the inhibition read?
Answer: inactive: 7.26%

Question: With Nc1cccc2c([As](=O)(O)O)cccc12 as the compound, how does the inhibition read?
Answer: active: 35.6%

Question: Which inhibition does the source give for CCCOP(=S)(Nc1nc(N)cc(=O)[nH]1)OCCC here?
Answer: inactive: -6.56%

Question: Cc1cccc(OCC(=O)OC2CN3CCC2CC3)c1 (stereo not given) was tested. Which inhibition did it give?
Answer: inactive: 3.63%

Question: O=[As](O)(c1cccc(O)c1)c1cccc(O)c1 was tested. Which inhibition did it give?
Answer: inactive: 1.02%

Question: With O=C(OC1CN2CCC1CC2)c1ccc(Cl)cc1 (stereo not given) as the compound, how does the inhibition read?
Answer: inactive: -1.16%

Question: O=[As](O)(O)c1cccnc1 was tested. Which inhibition did it give?
Answer: inactive: 2.3%

Question: COc1cc(C(=O)NCC2(N3CCOCC3)CCCCC2)cc(Cl)c1OC(C)C was tested. Which inhibition did it give?
Answer: inactive: 4.19%

Question: How did the inhibition turn out when CS(=O)(=O)c1ccc(Cl)c(NC(=O)COC(=O)C(O)(c2ccccc2)c2ccccc2)c1 was run?
Answer: inactive: -3.29%

Question: CC(C)/C=N\N=C(\N)N[N+](=O)[O-] was tested. Which inhibition did it give?
Answer: inactive: 0.86%

Question: CN(C(=O)Cc1ccc(Cl)c(Cl)c1)[C@@H]1CCCC[C@H]1N1CCCC1 was tested. Which inhibition did it give?
Answer: inactive: 1.55%

Question: Which inhibition does the source give for O=[As](O)(c1ccccc1Br)c1ccccc1Br here?
Answer: inactive: -1.45%

Question: How did the inhibition turn out when CC1(CBr)Cn2c(nc3ccccc3c2=O)S1 (stereo not given) was run?
Answer: inactive: -4.1%

Question: How did the inhibition turn out when COc1ccccc1CNC(=O)COC(=O)C(O)(c1ccccc1)c1ccccc1 was run?
Answer: inactive: -3.58%

Question: Clc1n[nH]nc1-c1nn[nH][15n]1 was tested. Which inhibition did it give?
Answer: inactive: 0.34%

Question: For CC(C)(C)C(=O)NC(Sc1ncccn1)C(Cl)(Cl)Cl (stereo not given), which inhibition is on record?
Answer: inactive: -2.17%

Question: For O=P1(Nc2ccccn2)COc2ccccc2OC1, which inhibition is on record?
Answer: inactive: -0.66%

Question: For CCC1=CC2Cc3nc4ccc(Cl)cc4c(N)c3C(C1)C2 (stereo not given), which inhibition is on record?
Answer: inactive: 0.28%

Question: Which inhibition does the source give for CCOP(=O)(NC(=NC(C)c1ccccc1)NC(C)c1ccccc1)OCC (stereo not given) here?
Answer: inactive: 1.65%

Question: How did the inhibition turn out when CCOP(=O)(Nc1ccc(C)cn1)OCC was run?
Answer: inactive: 4.46%

Question: For CN(CCCl)Cc1cc(Cl)c(NC2=NCCN2)c(Cl)c1, which inhibition is on record?
Answer: inactive: 0.94%

Question: Nc1cccc([As](=O)(O)c2ccccc2)c1 was tested. Which inhibition did it give?
Answer: inactive: 0.39%

Question: Which inhibition does the source give for Cc1ccc(OCC(=O)OC2CN3CCC2CC3)cc1 (stereo not given) here?
Answer: inactive: 5.17%

Question: Which inhibition does the source give for O=[As](O)(c1cccs1)c1cccs1 here?
Answer: inactive: 4.96%

Question: O=P1(Nc2ccc(Br)cn2)COc2ccccc2OC1 was tested. Which inhibition did it give?
Answer: inactive: 1.94%

Question: How did the inhibition turn out when O=P1(Nc2ncccn2)COc2ccccc2OC1 was run?
Answer: inactive: 1.49%

Question: For CN(C)C1(CNC(=O)c2ccc(S(C)(=O)=O)cc2)CCCCC1, which inhibition is on record?
Answer: inactive: 1.11%

Question: O=C(/C=C/c1ccccc1)OC1CN2CCC1CC2 (stereo not given) was tested. Which inhibition did it give?
Answer: inactive: 1.05%

Question: Cc1nn(-c2ccccc2)c2c1P(=O)(N1CCOCC1)N(C)C(c1ccccc1)=N2 (stereo not given) was tested. Which inhibition did it give?
Answer: inactive: 6.1%

Question: For CC1CCC(C(C)C)C(OP(=O)(Nc2ccccn2)c2ccccc2)C1 (stereo not given), which inhibition is on record?
Answer: inactive: -6.67%

Question: Cc1ccc(C(=O)OC2CN3CCC2CC3)cc1 (stereo not given) was tested. Which inhibition did it give?
Answer: inactive: 0.06%

Question: Which inhibition does the source give for O=P(Nc1ccccn1)(c1cccc2ccccc12)c1cccc2ccccc12 here?
Answer: inactive: 0.99%

Question: How did the inhibition turn out when Cc1cc(SC(NC=O)C(Cl)(Cl)Cl)ncn1 (stereo not given) was run?
Answer: inactive: 0.05%

Question: With CCOC(=O)Nc1cccc([As](=O)(O)O)c1 as the compound, how does the inhibition read?
Answer: inactive: 3.09%

Question: With Cc1cc(SC(NC(=O)c2ccccc2)C(Cl)(Cl)Cl)nc(C(C)C)n1 (stereo not given) as the compound, how does the inhibition read?
Answer: inactive: 2.34%

Question: For CCOC(=O)Nc1ccc([As](=O)(O)O)c(O)c1, which inhibition is on record?
Answer: inactive: 3.15%

Question: CCC(C)N(CC(C)C)C(=S)SC(NC(C)=O)C(Cl)(Cl)Cl (stereo not given) was tested. Which inhibition did it give?
Answer: inactive: 2.7%

Question: How did the inhibition turn out when O=C(OC1CN2CCC1CC2)c1cccc([N+](=O)[O-])c1 (stereo not given) was run?
Answer: inactive: -1.49%

Question: With CCOC(=O)c1ccc(NC(=O)C(C)(CCl)SC)cc1 (stereo not given) as the compound, how does the inhibition read?
Answer: inactive: -3.82%

Question: For O=C(COc1ccccc1)OC1CN2CCC1CC2 (stereo not given), which inhibition is on record?
Answer: inactive: -2.89%

Question: With O=C(Nc1ccncc1[N+](=O)[O-])c1ccc([N+](=O)[O-])cc1[N+](=O)[O-] as the compound, how does the inhibition read?
Answer: inactive: 2.49%

Question: How did the inhibition turn out when COP1(=S)c2c(C)nn(CCC#N)c2N=C(c2ccc(F)cc2)N1C (stereo not given) was run?
Answer: inactive: -0.75%

Question: Which inhibition does the source give for COc1ccc(N/C(=N/P(=O)(N2CCOCC2)N2CCOCC2)N2CCOCC2)cc1 here?
Answer: inactive: 0.98%

Question: For COc1ccc2nc(NP(=O)(c3ccccc3)c3ccccc3)sc2c1, which inhibition is on record?
Answer: inactive: -3.99%

Question: How did the inhibition turn out when COc1cc(I)ccc1[As](=O)(O)O was run?
Answer: inactive: 0.08%

Question: For Cc1c2c(nc3ccccc13)SC(C(Cl)Cl)C2 (stereo not given), which inhibition is on record?
Answer: inactive: -2.29%

Question: How did the inhibition turn out when O=C(OC1CN2CCC1CC2)C12CC3CC(CC(C3)C1)C2 (stereo not given) was run?
Answer: inactive: 6.99%

Question: Cc1cc(=O)[nH]c(N[N+](=O)[O-])n1 was tested. Which inhibition did it give?
Answer: inactive: -2.06%

Question: For CC(C)NC(=O)NP(=O)(Oc1ccccc1)Oc1ccccc1, which inhibition is on record?
Answer: inactive: -2.81%

Question: How did the inhibition turn out when CCN(CC)C(=S)SC(NC=O)C(Cl)(Cl)Cl (stereo not given) was run?
Answer: inactive: 0.67%
